Experimental data: US8748458B2, “Scriptaid isosteres and their use in therapy” (Karus Therapeutics Limited, priority 2009, dated 2014)

Protein sequences, listed by entry. Tags and fused reporters are not part of them.
UniProt Q9UQL6, whole entry, species assumed: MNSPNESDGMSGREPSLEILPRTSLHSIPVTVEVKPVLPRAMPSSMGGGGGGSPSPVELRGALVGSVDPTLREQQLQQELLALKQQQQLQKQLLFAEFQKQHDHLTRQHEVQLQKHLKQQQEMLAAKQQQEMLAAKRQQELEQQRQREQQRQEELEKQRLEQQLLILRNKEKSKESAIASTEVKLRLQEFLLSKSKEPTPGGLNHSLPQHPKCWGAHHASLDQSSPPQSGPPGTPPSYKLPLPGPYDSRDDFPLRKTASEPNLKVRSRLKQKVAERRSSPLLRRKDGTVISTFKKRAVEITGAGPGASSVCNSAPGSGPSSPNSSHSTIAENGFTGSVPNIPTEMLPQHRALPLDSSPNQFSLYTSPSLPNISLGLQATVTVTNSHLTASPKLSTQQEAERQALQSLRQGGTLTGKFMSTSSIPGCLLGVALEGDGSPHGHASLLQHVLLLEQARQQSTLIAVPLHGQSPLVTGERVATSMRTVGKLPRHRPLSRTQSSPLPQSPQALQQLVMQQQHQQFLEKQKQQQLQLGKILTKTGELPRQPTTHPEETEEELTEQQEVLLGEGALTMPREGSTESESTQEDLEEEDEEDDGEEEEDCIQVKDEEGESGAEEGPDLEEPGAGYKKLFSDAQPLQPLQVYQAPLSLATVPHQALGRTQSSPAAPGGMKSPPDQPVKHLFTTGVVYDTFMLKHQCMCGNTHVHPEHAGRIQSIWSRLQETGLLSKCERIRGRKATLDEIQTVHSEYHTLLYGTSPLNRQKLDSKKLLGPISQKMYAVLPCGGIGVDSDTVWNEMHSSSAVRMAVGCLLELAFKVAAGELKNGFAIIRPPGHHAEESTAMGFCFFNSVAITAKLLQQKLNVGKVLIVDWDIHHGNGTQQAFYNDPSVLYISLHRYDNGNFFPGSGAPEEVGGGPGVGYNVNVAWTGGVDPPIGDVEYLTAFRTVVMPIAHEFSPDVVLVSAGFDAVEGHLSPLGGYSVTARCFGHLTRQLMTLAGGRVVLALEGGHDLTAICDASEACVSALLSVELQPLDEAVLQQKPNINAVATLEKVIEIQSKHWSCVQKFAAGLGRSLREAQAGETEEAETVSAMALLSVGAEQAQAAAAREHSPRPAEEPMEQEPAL
UniProt Q13547, whole entry, species assumed: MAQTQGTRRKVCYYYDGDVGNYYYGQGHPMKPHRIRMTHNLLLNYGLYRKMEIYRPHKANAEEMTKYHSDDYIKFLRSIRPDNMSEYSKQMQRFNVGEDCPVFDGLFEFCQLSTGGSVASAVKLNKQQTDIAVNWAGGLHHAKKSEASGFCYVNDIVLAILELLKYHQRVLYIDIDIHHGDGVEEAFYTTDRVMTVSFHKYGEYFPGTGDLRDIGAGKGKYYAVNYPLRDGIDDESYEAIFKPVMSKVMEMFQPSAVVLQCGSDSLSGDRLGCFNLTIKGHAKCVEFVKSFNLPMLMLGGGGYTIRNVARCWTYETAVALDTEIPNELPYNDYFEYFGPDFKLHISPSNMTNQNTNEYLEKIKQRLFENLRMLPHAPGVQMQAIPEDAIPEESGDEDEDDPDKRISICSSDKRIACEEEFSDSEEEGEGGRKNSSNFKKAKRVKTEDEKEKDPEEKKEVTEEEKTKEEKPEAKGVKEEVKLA

Key:
[1] = molecular target: HDAC5 (Homo sapiens (Human), UniProt Q9UQL6); experiment: HDAC5 inhibition; type: biochemical
[2] = molecular target: HDAC1 (Homo sapiens (Human), UniProt Q13547); experiment: HDAC1 inhibition; type: biochemical
[3] = system: MCF7 Breast Tumour Cell; experiment: MCF7 Breast Tumour Cell Proliferation Inhibition; type: cell-based; settings: Homo sapiens; MCF7 cells

O=C(CCCCCCN(c1ccccn1)c1ccccn1)NO [Example 3, 7-(Dipyridin-2-ylamino)-N-hydroxyheptanamide]
IC50 [1]: 458 nM | IC50 [2]: 458 nM | IC50 [3]: 466 nM
